Laboratory results published in US7294629B2, “Quinazoline derivatives” (Mitsubishi Pharma Corporation, priority 2001, dated 2007).

Key:
[1] = target: mutated c-erbB2 (HER2) constitutively activated, in transformed NIH3T3 cells (A4 cell) (Homo sapiens, UniProt P04626, V659E); test: HER2 tyrosine kinase inhibitory action (phosphotyrosine Western blotting in A4 cells); settings: 2 hrs, signal without compound = 100%
[2] = test system: A431 tumor; test: In vivo antitumor effect on A431 tumor in nude mice; set-up: species or system Balb/c female nude mice; settings: for relative tumor growth rate: volume at start = 1
[3] = 1 mg/kg orally once a day for 14 days
[4] = 10 mg/kg orally once a day for 14 days

Structure (SMILES)	% of control at 0.1 μM (phosphorylation signal) [1] [%]	% of control at 1 μM (phosphorylation signal) [1] [%]	% of control (antitumor effect) [2, 3] [%]	relative tumor growth rate [2, 3]	% of control (antitumor effect) [2, 4] [%]	relative tumor growth rate [2, 4]	antitumor effect (in words) ([2]; A431 tumor, oral, 14 days)
C=CC(=O)Nc1cc2c(Nc3ccc(F)c(Cl)c3)ncnc2cc1C#CC(C)(C)N1CCC(=O)CC1	16	5	–	–	–	–	–
C=CC(=O)Nc1cc2c(Nc3ccc(F)c(Cl)c3)ncnc2cc1C#CC(C)(C)N(C)CCN(C)C	61	31	97.2	5.63	1.8	1.09	dose-dependent antitumor effect
